Experimental data: BindingDB's records for PubMed 8510008 (Eli Lilly, 1993)

Amino acid sequences for entries named in this document (tags omitted).
UniProt P14842, whole entry: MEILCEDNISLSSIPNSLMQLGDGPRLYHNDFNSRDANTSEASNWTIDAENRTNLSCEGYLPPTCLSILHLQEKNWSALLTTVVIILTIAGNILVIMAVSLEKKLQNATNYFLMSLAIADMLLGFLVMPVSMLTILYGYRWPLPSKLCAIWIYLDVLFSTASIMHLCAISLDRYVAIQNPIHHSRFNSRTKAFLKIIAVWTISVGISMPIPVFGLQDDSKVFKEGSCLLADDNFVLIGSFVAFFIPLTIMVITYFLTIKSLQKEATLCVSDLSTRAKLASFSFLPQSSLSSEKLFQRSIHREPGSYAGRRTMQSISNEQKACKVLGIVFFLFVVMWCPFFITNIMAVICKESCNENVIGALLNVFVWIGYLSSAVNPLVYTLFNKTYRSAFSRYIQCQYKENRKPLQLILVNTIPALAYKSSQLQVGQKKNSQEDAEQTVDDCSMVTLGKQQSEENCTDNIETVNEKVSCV

Biological target: 5-hydroxytryptamine receptor 2A (Rattus norvegicus, UniProt P14842)

In the case of COc1ccc2[nH]cc(CCN)c2c1 [tryptamine, 5-Methoxy], the Ki is reported as 3.79 µM.
